Measurements as given in US4172896A, “Methane-sulfonamide derivatives, the preparation thereof and composition comprising the same” (Dainippon Pharmaceutical Co., Ltd., priority 1978, dated 1979).

Tests used:
[1] = in vivo; details: mouse, mice, oral
Description: Male mice of STD-ddY strain weighing 20-22 g were used. The test compounds were orally administered to the test animals (each group: 10 mice) in the form of a homogeneous suspension in 0.5% tragacanth solution.

[2] = Effect on coordinated motor movements in mice (rotarod); details: mouse, in vivo, po
Description: Mice trained to continue coordinated motor movements for 100 seconds or more on a rotarod apparatus (2.5 cm in diameter at 11 RPM) were used [J. Amer. Pharm. […] Impairment of coordinated motor movements was defined as the inability of the animals to retain on the rotarod for a 100 second test period. After oral administration of the test compounds rotarod performance was tested at intervals of 1 hour for 6 hours. Median neurotoxic dose (NTD50), i.e. the does which causes fall from rotarod in 50% of animals, was calculated by the method of Litchfield and Wilcoxon.

## O=C1NC(=O)C(c2ccccc2)(c2ccccc2)N1 [Diphenylhydantoin, 5,5-diphenyl-2,4-imidazolidinedione, reference compound]
[1]; LD50/ED50 of anti-MES, read-out: Safety index
  selectivity ratio: 47.8
[1]; mortality observed for 7 days
  LD50 at 168 h: 363 mg/kg
[2]
  selectivity ratio: 9.5
